Laboratory results taken from PubChem BioAssay AID637 (SRMLSC, 2007).
This is a selection; strong and weak results do not stand in their true shares. Some results for these compounds are left out of this collection, so the calls shown say nothing about other tests. Active and inactive are the calls of the source. Cut-off read from the data, not from the text of the source: active = inhibition above about 30%; inactive = the rest.

test: growth suppression of yeast trafficking mutant, preliminary HTS, modulators of trafficking downstream of Golgi apparatus project, 1536-format plate, OD 615 nm (AID 637); conditions: yeast transport mutant growth, absorbance 615 nm, 18 h; active compounds read high

Compound | inhibition
O=C(OC1CN2CCC1CC2)C(CO)(c1ccccc1)c1ccccc1 (stereo unspecified) | inactive: 3.06%
